Data: patent US8802180B2, “Micronutrient supplement” (Heritage Technologies, LLC, priority 2011, dated 2014)

Conditions: supplement included in feed

For basic zinc chloride [Zn5(OH)8Cl2.(H2O)], the absorption by chicks was “readily absorbed”.
